# Measured affinities in a library of Ab-14 light chain variants

The target is the same throughout: PDVDLGDISGINAS, from the HR2 region of SARS-CoV-2 spike.

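Designed CDR sequences, proposed from the first random library and measured here. Group labels follow the data file (Ctrl: baseline library sampled from a position-specific scoring matrix, with some repeated check sequences; En: ensemble of fine-tuned language models; GP: Gaussian process model; HC: hill climbing; Gen: genetic algorithm; Gibbs: Gibbs sampling; a sequence that several methods proposed may carry one label only). Affinity was read by AlphaSeq, a pooled yeast mating assay with surface-displayed partners. Mating (16 h, 30 °C) was followed by selection of diploids and sequencing of their barcodes. Read counts were normalised to the haploid input and turned into Kd by a linear fit to BCL2-family pairs of known affinity, for each replicate. The assay was run in six technical replicates.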

Ab-14 is the parent antibody, in scFv form: VH, then three GGGGS repeats, then VL. The heavy chain is unchanged in all variants.
VH: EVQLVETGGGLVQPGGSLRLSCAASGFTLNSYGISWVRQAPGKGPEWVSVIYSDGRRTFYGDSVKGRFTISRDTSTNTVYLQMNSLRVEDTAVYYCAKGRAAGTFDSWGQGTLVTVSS
VL: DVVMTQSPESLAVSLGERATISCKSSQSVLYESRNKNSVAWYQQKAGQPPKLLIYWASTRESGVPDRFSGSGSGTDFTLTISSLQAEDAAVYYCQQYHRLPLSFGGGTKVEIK

Variants are written as CDR1, CDR2 and CDR3 of the light chain (limits as in the source). Parent: KSSQSVLYESRNKNSVA, WASTRES, QQYHRLPLS.
This list holds designs with more than six substitutions.
The Kd shown is the geometric mean over detected replicates; a lower Kd is a better binder.
"nd" means that the variant was in the library but no mating with the target was seen in any replicate; the authors take this as a sign of poor binding, and no number exists.
Entries are sorted by rising average, undetected variants last.
Empty control strains, which show no peptide, gave a signal in 4% of pairings with all light chain designs; the median was 430 nM and 95% of these signals were weaker than 38 nM. No background was subtracted. The control count says in how many pairings with the empty strains this scFv gave a signal.
The authors' rule: three or more of the six replicates give a measured affinity, fewer mean a poor binder.
Of ten entries with the parent sequence, four were seen in most replicates (averages 2.2 nM to 240 nM), three in one and three in none, so single entries are noisy.
Values of this round are not directly comparable with the first-round values of the same sequences.

- KMSPSELYQDRNSNAVA, QASQRES, QQYHRLPLS [GP_Gibbs]: 440 pM (6 of 6 replicates; controls 0 of 18)
- KLSQVTEYESRNKNNVA, DLSTRGQ, QDYHRLPLS [En_HC]: 480 pM (6 of 6 replicates; controls 2 of 18)
- KLQQWDLYEGRNKNSVA, SASTRSD, QQYHRLPLS [GP_Gibbs]: 570 pM (6 of 6 replicates; controls 0 of 18)
- KCQGSQLYESRNKNAVA, NASTRCD, QQYHRLPLS [GP_Gibbs]: 850 pM (6 of 6 replicates; controls 2 of 18)
- KISGMYQKESKNKNSVA, EMVNRED, QQYDRLPLS [En_HC]: 900 pM (6 of 6 replicates; controls 0 of 18)
- KLGGVTSYEMMNKNSVA, QMTTRES, QQYHRLPLS [En_HC]: 960 pM (6 of 6 replicates; controls 0 of 18)
- ALTAHRLVAIEAKNSIA, NAVMRED, QQYAQLPLM [En_Gibbs]: 1.1 nM (6 of 6 replicates; controls 1 of 18)
- KLQGSELGESRNKNSVA, SADTREE, QQYHRLPLS [GP_Gibbs]: 1.2 nM (6 of 6 replicates; controls 1 of 18)
- QISGITGHMSMLKNNVA, EMETREN, QQYDRLPLA [En_Gen]: 1.2 nM (6 of 6 replicates; controls 0 of 18)
- KLGNQEQMEGMLTQNVA, AMNTVVD, QEYHRLPLI [En_Gibbs]: 1.3 nM (6 of 6 replicates; controls 2 of 18)
- KIGGVTNGLSRSKNSVA, EQSTRED, QQYNRLPLS [En_HC]: 1.4 nM (6 of 6 replicates; controls 0 of 18)
- KSSISVEYQDRLSNSVA, QASQRES, QQYHRLPLS [GP_Gibbs]: 1.5 nM (6 of 6 replicates; controls 1 of 18)
- KLMQGVDMESRNKNSVA, NASMRLD, QQYHRLPLS [GP_Gibbs]: 1.7 nM (6 of 6 replicates; controls 2 of 18)
- KLSQQNKYESRMKNSVA, NASQRES, QQYHRLPLS [GP_Gibbs]: 1.7 nM (6 of 6 replicates; controls 2 of 18)
- KINQLMNIEQMNSKSVA, HTSTREN, QQYHRLPLS [En_HC]: 1.8 nM (6 of 6 replicates; controls 1 of 18)
- KLSGSDLYESRNSNSVA, HGSTRES, QDYHRLPLS [GP_Gibbs]: 1.9 nM (6 of 6 replicates; controls 1 of 18)
- KYSQSQLYEDRNVNSVA, NASQRMS, QQYHRLPLS [GP_Gibbs]: 1.9 nM (6 of 6 replicates; controls 2 of 18)
- KVSPEWEYSSRNKASVA, HASTRES, QQYHRLPLS [GP_Gibbs]: 2.0 nM (6 of 6 replicates; controls 0 of 18)
- QLSMITGHMSVSKNNVA, EMETRMN, QQYDRLPLS [En_Gen]: 2.4 nM (6 of 6 replicates; controls 2 of 18)
- TISQSWFIESRNKNNVA, EMSTREN, QDYDRLPLS [En_HC]: 2.4 nM (6 of 6 replicates; controls 0 of 18)
- KVLQEMLYESRMANSVA, NASQREE, QQYHRLPLS [GP_Gibbs]: 2.5 nM (6 of 6 replicates; controls 0 of 18)
- KLTMITGLEKVSTNNVA, EMETREH, QQYNRLPLS [En_Gen]: 3.9 nM (6 of 6 replicates; controls 0 of 18)
- MIGEMLMQGAYKKNSVA, QANLRAE, QHYHRLPLE [En_Gen]: 5.4 nM (6 of 6 replicates; controls 0 of 18)
- NLQYLEEESLIGASAIA, DVNIAVM, QQYSRLPLA [En_Gibbs]: 5.6 nM (6 of 6 replicates; controls 2 of 18)
- HMSMLTLMGQRHVNSVA, QMTTREN, QQYDRLPLT [En_Gen]: 7.3 nM (6 of 6 replicates; controls 0 of 18)
- SFHEVNFEGLAQTANVA, NASYLFE, QQYFRLPLT [En_Gibbs]: 8.2 nM (6 of 6 replicates; controls 3 of 18)
- MLSQMTGLGMKAKNSVA, QANMRFD, QQYHRLPLL [En_Gen]: 11 nM (6 of 6 replicates; controls 1 of 18)
- HMSMLTMMGMRQRNSVA, QMTMREN, QQYDRLPLT [En_Gen]: 20 nM (3 of 6 replicates; controls 1 of 18)
- KPAQSWLYESSNHNSVA, WASMRES, QQYGRLPLS [Ctrl]: 22 nM (6 of 6 replicates; controls 0 of 18)
- KITSHEREGTADNSAMA, NADVSHD, QQYSRLPLF [En_Gibbs]: 22 nM (6 of 6 replicates; controls 1 of 18)
- KFNMEVFGQNNNKYNIA, AAHQLEY, QTYHRLPLV [En_Gibbs]: 29 nM (2 of 6 replicates; controls 1 of 18)
- KFQQSQLYESRQKNSVA, NASKRCS, QQYHRLPLK [GP_Gibbs]: 47 nM (4 of 6 replicates; controls 0 of 18)
- MISYLTMYGSRNKNSVA, DLSTRGS, QQYHRLPLS [En_HC]: 51 nM (5 of 6 replicates; controls 0 of 18)
- KITMTMRFEQKNTNNIA, EVSTRSK, QQYVRLPLA [En_Gen]: 70 nM (5 of 6 replicates; controls 0 of 18)
- KLTAAQNYYGQNYSNIA, EEVNSLQ, QQYHHLPLS [En_Gibbs]: 170 nM (1 of 6 replicates; controls 0 of 18)
- KAMVSWLYWSRNQNSVA, NASQREH, QQYHRLPLS [GP_Gibbs]: 190 nM (1 of 6 replicates; controls 1 of 18)
- MVYGSMDQALRTHNSIA, DNQTRES, QQYDRLPLS [En_Gen]: 210 nM (3 of 6 replicates; controls 0 of 18)
- MISQIYNMGQFAINSVA, QASTRNA, QQYDRLPLT [En_Gen]: 220 nM (1 of 6 replicates; controls 1 of 18)
- KIMQSLNYEMFNKNSVA, GQETRER, QSYHRLPLS [En_HC]: 280 nM (6 of 6 replicates; controls 0 of 18)
- KLGQTVGYESRNKSRVA, DNSTRES, QQYDRLPLS [En_HC]: 1.4 µM (5 of 6 replicates; controls 0 of 18)
- MVHQLMLWGLHAKNSIA, EAQTRLN, QQYDRLPLF [En_Gen]: nd (0 of 6 replicates; controls 0 of 18)
- KLREVQHVETKKKNNVA, DNSTRES, QDYYRLPLS [En_HC]: nd (0 of 6 replicates; controls 0 of 18)
- KISWNFYIESRNLNSVA, EMTTREY, QDYDRLPLS [En_HC]: nd (0 of 6 replicates; controls 0 of 18)

For reference, 5 entries of the list once more:

{"CDR-L1": "KLQQWDLYEGRNKNSVA", "CDR-L2": "SASTRSD", "CDR-L3": "QQYHRLPLS", "group": "GP_Gibbs", "Kd (apparent)": "570 pM", "seen in": "6/6", "signal with controls": "0/18"}
{"CDR-L1": "KITSHEREGTADNSAMA", "CDR-L2": "NADVSHD", "CDR-L3": "QQYSRLPLF", "group": "En_Gibbs", "Kd (apparent)": "22 nM", "seen in": "6/6", "signal with controls": "1/18"}
{"CDR-L1": "KVLQEMLYESRMANSVA", "CDR-L2": "NASQREE", "CDR-L3": "QQYHRLPLS", "group": "GP_Gibbs", "Kd (apparent)": "2.5 nM", "seen in": "6/6", "signal with controls": "0/18"}
{"CDR-L1": "MLSQMTGLGMKAKNSVA", "CDR-L2": "QANMRFD", "CDR-L3": "QQYHRLPLL", "group": "En_Gen", "Kd (apparent)": "11 nM", "seen in": "6/6", "signal with controls": "1/18"}
{"CDR-L1": "QLSMITGHMSVSKNNVA", "CDR-L2": "EMETRMN", "CDR-L3": "QQYDRLPLS", "group": "En_Gen", "Kd (apparent)": "2.4 nM", "seen in": "6/6", "signal with controls": "2/18"}

Data: MIT Lincoln Laboratory AlphaSeq set, Li et al. 2023, doi:10.1038/s41467-023-39022-2, as distributed in FLAb.